From US20160137639A1, “TRIAZOLE-ISOXAZOLE COMPOUND AND MEDICAL USE THEREOF” (JAPAN TOBACCO INC., priority 2012, published 2016) come the findings set out here.

By UniProt entry, the sequences of proteins in these tests, tags left out. Residues count along the entry.
UniProt P51449, 253-518 limits assumed: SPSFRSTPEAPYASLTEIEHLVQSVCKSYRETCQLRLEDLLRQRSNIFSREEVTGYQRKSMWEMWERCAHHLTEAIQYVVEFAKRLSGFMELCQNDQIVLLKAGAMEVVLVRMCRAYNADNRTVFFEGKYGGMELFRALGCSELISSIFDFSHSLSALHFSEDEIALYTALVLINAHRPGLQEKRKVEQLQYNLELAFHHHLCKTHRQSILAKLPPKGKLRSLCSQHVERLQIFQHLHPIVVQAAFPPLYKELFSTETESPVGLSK
UniProt P51450, 251-516 limits assumed: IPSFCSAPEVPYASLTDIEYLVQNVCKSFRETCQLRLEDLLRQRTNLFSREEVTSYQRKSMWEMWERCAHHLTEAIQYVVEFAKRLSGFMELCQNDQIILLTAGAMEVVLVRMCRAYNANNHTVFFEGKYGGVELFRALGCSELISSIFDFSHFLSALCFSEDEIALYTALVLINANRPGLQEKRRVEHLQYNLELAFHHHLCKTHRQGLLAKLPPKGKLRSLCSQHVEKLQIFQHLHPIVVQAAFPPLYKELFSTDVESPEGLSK

Where two headings read alike, the source gives them in different places.

The target in assay [1] is human RORγ (Homo sapiens, UniProt P51449). The assay can be described thus: Luciferase reporter gene assay of inhibitory effect against RORγ transcriptional activity (GAL4-hRORγ plasmid in CHO cells).
The target of assay [2] is mouse RORγ (Mus musculus, UniProt P51450). The assay can be described thus: Luciferase reporter gene assay of inhibitory effect against RORγ transcriptional activity (GAL4-mRORγ plasmid in CHO cells). It is filed as cell-based.
[3] abbreviates: read-out: LUC EC50 hRORg, tested form: HCl.
[4] abbreviates: read-out: LUC EC50 mRORg, tested form: HCl.

For the molecule `Cc1ccc(NC(=O)C2CCC(=O)N(C)C2c2nnc(CCCC(C)(C)C)n2C2CC2)c(C)c1` (stereo not drawn), the EC50 in assay [1] (read-out: LUC EC50 (μM) hRORg) and in assay [2] (read-out: LUC EC50 (μM) mRORg) was less than 3 µM each time.
In the case of `Cc1ccc(NC(=O)C[C@H](C[C@@H](C)O)c2nnc(CCCC(C)C)n2C2CC2)c(C)c1`, the EC50 in assay [1] (read-out: LUC EC50 (μM) hRORg) and in assay [2] (read-out: LUC EC50 (μM) mRORg) was less than 3 µM each time.
Regarding `Cc1ccc(NC(=O)[C@H]2CN(C(=O)C(C)(C)O)C[C@@H]2c2nnc([C@H]3C[C@@H](CC(C)C)C3)n2C2CC2)c(C)c1`, the EC50 in assay [1] (setting [3]) and in assay [2] (setting [4]) was less than 3 µM in each case.
Turning to `CC(C)Cc1cc(-c2nnc([C@H](CC(=O)Nc3ccc4c(c3)OC(F)(F)O4)OC(C)C)n2C2CC2)no1`, the EC50 in assay [1] (setting [3]) and in assay [2] (setting [4]) was less than 3 µM throughout.
As for `Cc1c(Cl)cccc1NC(=O)CCc1nnc(CC(=O)N(C)C)n1C1CC1`, the EC50 in assay [1] (read-out: LUC EC50 (μM) hRORg) and in assay [2] (read-out: LUC EC50 (μM) mRORg) was more than 3 µM each time.
On to `Cc1ccc(NC(=O)C[C@H](OCC(C)C)c2nnc(-c3cc(CC(C)C)on3)n2C2CC2)c(C)c1`, for which the EC50 in assay [1] (read-out: LUC EC50 hRORg) and in assay [2] (read-out: LUC EC50 mRORg) was less than 3 µM in each case.
With `Cc1ccc(NC(=O)C[C@@H](CC(C)(C)O)c2nnc(CCCC(C)C)n2C2CC2)c(C)c1`, the EC50 in assay [1] (read-out: LUC EC50 (μM) hRORg) and in assay [2] (read-out: LUC EC50 (μM) mRORg) was more than 3 µM throughout.
On to `CC(C)(C)C(F)(F)c1cc(-c2onc([C@@H](CC(=O)O)CC(=O)Nc3ccc(Cl)cc3F)c2C2CC2)no1`, for which the EC50 in assay [1] (read-out: LUC EC50 (μM) hRORg, tested form: Na salt) was less than 3 µM; in assay [2] (read-out: LUC EC50 (μM) mRORg, tested form: Na salt) it was less than 3 µM.
Consider `Cc1ccc(NC(=O)C[C@H](CCO)c2nnc([C@H]3C[C@@H](CC(C)C)C3)n2C2CC2)c(Cl)c1`, for which the EC50 in assay [1] (read-out: LUC EC50 hRORg) and in assay [2] (read-out: LUC EC50 mRORg) was less than 3 µM throughout.
On to `Cc1ccc(NC(=O)C[C@@H](C[C@H](C)O)c2nnc(CCCC(C)C)n2C2CC2)c(C)c1`, for which the EC50 in assay [1] (read-out: LUC EC50 (μM) hRORg) was more than 3 µM; in assay [2] (read-out: LUC EC50 (μM) mRORg), less than 3 µM.
For the molecule `C=CCC(CC(=O)Nc1ccc(C)cc1C)c1nnc(CCC2CCCCC2)n1C1CC1` (racemic), the EC50 in assay [1] (read-out: LUC EC50 (μM) hRORg) and in assay [2] (read-out: LUC EC50 (μM) mRORg) was less than 3 µM each time.
Regarding `Cc1ccc(NC(=O)C[C@H](CC(C)(C)O)c2nnc(CCCC(C)C)n2C2CC2)c(C)c1`, the EC50 was less than 3 µM in assay [1] (read-out: LUC EC50 (μM) hRORg); less than 3 µM in assay [1] (read-out: LUC EC50 (μM) hRORg, tested form: hydrochloride); less than 3 µM in assay [2] (read-out: LUC EC50 (μM) mRORg); less than 3 µM in assay [2] (read-out: LUC EC50 (μM) mRORg, tested form: hydrochloride).
Consider `CCn1c(CCC(=O)NCc2cccc3ccccc23)nnc1CCC1CCCCC1`, for which the EC50 in assay [1] (read-out: LUC EC50 (μM) hRORg) and in assay [2] (read-out: LUC EC50 (μM) mRORg) was less than 3 µM in each case.
As for `Cc1ccc(NC(=O)C[C@@H](C[C@@H](C)O)c2nnc(CCCC(C)C)n2C2CC2)c(C)c1`, the EC50 in assay [1] (read-out: LUC EC50 (μM) hRORg) and in assay [2] (read-out: LUC EC50 (μM) mRORg) was more than 3 µM each time.
Turning to `Cc1ccc(NC(=O)C[C@@H](C[C@H](C)OCc2ccccc2)c2nnc(CCCC(C)C)n2C2CC2)c(C)c1`, the EC50 in assay [1] (read-out: LUC EC50 (μM) hRORg) and in assay [2] (read-out: LUC EC50 (μM) mRORg) was more than 3 µM throughout.
With `Cc1ccc(NC(=O)CC(CC(C)(C)O)c2nnc(CCCC(C)C)n2C2CC2)c(C)c1` (stereo not drawn), the EC50 in assay [1] (read-out: LUC EC50 (μM) hRORg, tested form: racemic form) was less than 3 µM; in assay [2] (read-out: LUC EC50 (μM) mRORg, tested form: racemic form), less than 3 µM.
`Cc1ccc(NC(=O)C[C@H](C[C@H](C)O)c2nnc(CCCC(C)C)n2C2CC2)c(C)c1`: the EC50 in assay [1] (read-out: LUC EC50 (μM) hRORg) and in assay [2] (read-out: LUC EC50 (μM) mRORg) was less than 3 µM throughout.
Turning to `Cc1ccc(NC(=O)C[C@H](CNC(=O)C(C)(C)O)c2nnc([C@H]3C[C@@H](CC(C)C)C3)n2C2CC2)c(C)c1`, the EC50 in assay [1] (read-out: LUC EC50 (μM) hRORg) and in assay [2] (read-out: LUC EC50 (μM) mRORg) was less than 3 µM each time.
For the molecule `Cc1ccc(NC(=O)C[C@H](C[C@H](C)OCc2ccccc2)c2nnc(CCCC(C)C)n2C2CC2)c(C)c1`, the EC50 in assay [1] (read-out: LUC EC50 (μM) hRORg) and in assay [2] (read-out: LUC EC50 (μM) mRORg) was less than 3 µM throughout.
In the case of `CCn1c(CCC(=O)NCc2cccc(C)c2)nnc1CCC1CCCCC1` [Example F-42], the EC50 in assay [1] (read-out: LUC EC50 (μM) hRORg) and in assay [2] (read-out: LUC EC50 (μM) mRORg) was more than 3 µM throughout.
